Screening data from PubChem.
G9a inh: G9a (human) methyltransferase inhibition; Q96KQ7; Potency, µM (series often up to 102 µM), hits mostly inhibitors; G9a H3K9 monomethylation, AlphaScreen, 2 h; actives 8.8% (n = 350,000); note: nearly all actives have a fitted effect of over 75% in size
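AlphaScreen detection with an anti-monomethyl H3K9 antibody quantified product after a 2 h room-temperature reaction containing 500 nM biotinylated H3K9 peptide, 20 µM SAM and 20 nM enzyme, which had been preincubated 15 min with compound.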
LMNA splice mod: changes lamin A minigene splicing in HeLa cells; AID 1487; Potency, µM (series often up to 46.1 µM), usual class: inhibitors; HeLa LMNA splicing GFP/RFP minigene ratio, 48 h; actives 0.01% (n = 200,000); active = well fitted inhibition curve with a large enough effect in the signal ratio, with a control signal flat, not every such curve was filed as active; inconclusive = small, poorly fitted or top-dose-only effect, or effect the other way, or a change in a side signal; the % refers to the signal ratio
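Read-out is the ratio of GFP to DsRed2 object intensity, acquired by 488 nm laser-scanning cytometry on HeLa lamin A-EGFP minigene reporter cells. Compound incubation 48 hrs at 37 °C in Opti-MEM with 2% FBS; DMSO 0.5% final.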
miR-21 reporter: miR-21 reporter, rising signal. 340,000 tested, under 10 active. Potency, µM (highest dose often 38.3 µM). HeLa miR-21 FLuc reporter, luciferase, 48 h. AID 2288; active = well fitted rising curve with a large enough effect; inconclusive = small, poorly fitted or top-dose-only effect; inactive = no such curve, though single readings can be large or run the other way;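 further: miR-21 action dims this reporter so a rising signal means less miR-21 action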
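Using DMEM plus 10% FBS, HeLa miR-21-FLuc cells are incubated with test compounds (final up to about 40uM) for 48 hours; firefly luciferase signal is then imaged following reagent-mediated lysis.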
ALDH1A1 inh: ALDH1A1 (human) enzyme inhibition. Purified ALDH1A1, NADH fluorescence, propionaldehyde substrate. Potency, µM (doses to about 75.3 µM), most hits filed as inhibitors. actives 7.3% (n = 220,000); active = well fitted inhibition curve with a large enough effect, not every such curve was filed as active; inconclusive = small, poorly fitted or top-dose-only effect, or another doubt; inactive = no such curve, though single readings can be large or run the other way
KDM4E inh: blocks human JMJD2E demethylase activity | B2RXH2 | JMJD2E catalytic domain, FDH-coupled NADH fluorescence (FDH is formaldehyde dehydrogenase) | AID 2147 | actives 1.6% (n = 230,000) | Potency, µM (series often up to 57.1 µM), most hits filed as inhibitors; active = well fitted inhibition curve with a large enough effect, not every such curve was filed as active; inconclusive = small, poorly fitted or top-dose-only effect, or another doubt; inactive = no such curve, though single readings can be large or run the other way; note: nearly all actives have a fitted effect of over 50% in size
Sfp PPTase inh: Sfp phosphopantetheinyl transferase inhibition. actives 3.5% (n = 310,000). Biochemical Sfp PPTase activity, qHTS. AID 1490. Potency, µM, most hits filed as inhibitors;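 note: the enzyme is Sfp with the accession as filed and its product quenches rhodamine fluorescence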
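After 15 min at room temperature with compound, 15 nM Sfp received 5 uM rhodamine-CoA plus 12.5 uM BHQ-2-ybbR (50 mM Hepes pH 7.6, 10 mM MgCl2). Rate came from the fluorescence difference over 30 min, ex 525/em 598 nm.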
Hits are given with their value; n = inactive; u = inconclusive; x = not tested or not shown; [ ] = another dose, or the depositor's remark. Most compounds without a hit are left out; they make up all but 13% or so of the library. Unless noted, calls come from the whole dose curve; as a rule, active = well fitted curve in the direction sought with a large enough effect; inconclusive = small, poorly fitted or top-dose-only effect, or another doubt; inactive = no such curve, though single readings can be large; an effect the other way counts as inactive or inconclusive.

SMILES | G9a inh | LMNA splice mod | miR-21 reporter | ALDH1A1 inh | KDM4E inh | Sfp PPTase inh
CC(C)(C)NS(=O)(=O)c1ccc(CCC(=O)NCc2ccc3c(c2)OCO3)cc1 | n | n | n | n | n | n
CC(C)(C)NS(=O)(=O)c1ccc(OCC(=O)Nc2ccc3c(c2)OCCO3)cc1 | n | n | n | 1.8µM | n | n
O=C(COc1ccc(S(=O)(=O)N2CCOCC2)cc1)Nc1ccc2c(c1)OCCO2 | n[12.7 µM] | n | n | u | n | n
CCNS(=O)(=O)c1ccc(CCC(=O)Nc2ccc3c(c2)OCCO3)cc1 | x | x | n | x | x | n
CC(C)(C)NS(=O)(=O)c1ccc(CCC(=O)Nc2ccc3c(c2)OCCO3)cc1 | n | n | n | 4µM | n | n
O=C(NCCS(=O)(=O)N1CCN(c2cccc(Cl)c2)CC1)C(c1ccccc1)c1ccccc1 | n | n | n | x | x | x
CC1CCCCN1C(=O)Cn1c(=O)n(-c2ccc(Cl)cc2)c(=O)c2c3c(sc21)CCC3 (stereo not given) | n | x | n | x | x | x
Cc1ccccc1Nc1nnc(SCC(=O)NC(=O)NCc2ccco2)s1 | 35µM | n | n | u | n | n
O=C(CSc1nnc(NC(=O)c2c(F)cccc2F)s1)NCc1ccco1 | 45µM | x | x | x | x | x
O=C(CSc1nnc(Nc2ccccc2F)s1)NCc1ccco1 | u | n | n | u | n | n
O=Cc1cccn1-c1nccc(-c2ccco2)n1 | n | n | n | 22µM | u | n
CN(C)c1oc(-c2ccc(OCc3ccccc3)cc2)nc1C#N | 11µM | u | n | u | u | n
Cc1noc(C)c1COC(=O)c1csc2c1CCC(C)C2 (stereo not given) | n | x | x | x | x | x
Cc1ccccc1-n1nc(CO)c(C(=O)NCCc2ccccc2)n1 | n | x | n | x | x | x
CC(=O)N1CN(Cc2ccccn2)Cc2c1sc1c2CCCC1 | u | n | n | u | n | 45µM
Cc1c(Cl)ccc2sc(N3CCN(C(=O)C4CC4)CC3)nc12 | n | n | n | x | x | x
COc1ccc(-n2c(SCC(=O)NCC3CCCO3)nc3c(c2=O)SC(C)C3)cc1 (stereo not given) | x | x | n | x | x | n
CC(=O)Nc1sc2c(c1C(c1ccccn1)N1CCCC1)CCCC2 (stereo not given) | n | n | n | u | u | 45µM
CCc1cc(C(c2ccccn2)N2CCN(C)CC2)c(NC(=O)c2ccccc2)s1 (stereo not given) | 40µM | n | n | n | n | n
CC(=O)Nc1sc2c(c1C(c1ccccn1)N1CCN(C)CC1)CCCC2 (stereo not given) | n | x | n | n | n | n
COc1cccc(-n2c(=O)c3sc4ccccc4c3n(CC(=O)Nc3ccccc3OC)c2=O)c1 | u | x | n | x | x | x
COc1ccc(Oc2ncc3nc(-c4ccccc4)c(=O)n(CCC#N)c3n2)cc1 | n[12.7 µM] | x | x | u | x | n
COc1ccc(-n2ccn(Cc3ccccc3C)c(=O)c2=O)cc1 | n | n | u | x | x | x
CCN(CC)CCN1C2=C(C(=O)CC(C)(C)C2)C(c2cccc(F)c2)C2=C1CC(C)(C)CC2=O | n | n[9.22 µM] | n | u | u | n
CCCCN1C2=C(C(=O)CC(C)(C)C2)C(c2ccccc2)C2=C1c1ccccc1C2=O (stereo not given) | u | n | n | u | u | 56µM
SMILES | G9a inh | LMNA splice mod | miR-21 reporter | ALDH1A1 inh | KDM4E inh | Sfp PPTase inh
CCCN1C2=C(C(=O)CC(C)(C)C2)C(c2ccc(F)cc2)C2=C1c1ccccc1C2=O (stereo not given) | 11µM | n | n | u | n | n
Cc1cc(NC(=O)Cn2nc(C)c([N+](=O)[O-])c2C)no1 | n | n | n | n | n | n
COc1cccc(-c2nc3c(C#N)c[nH]n3c2NC2CCCC2)c1OC | n | x | n | x | x | x
COc1ccc(N2CCN(C(=O)C3CCN(C(=O)c4cccc(Cl)c4)CC3)CC2)cc1 | n | x | n | x | x | n
CCN(CC(=O)Nc1c(F)cccc1F)C(=O)c1ccc(N2CCCC2=O)cc1 | n | x | x | x | x | x
Cc1ccc(C(=O)c2c3ccc(N)cc3nn2CCC(N)=O)cc1 | 45µM | x | n | x | x | n
COc1ccc(Cl)cc1C(=O)NNC(=S)NC(=O)c1cc(-c2ccccc2)nc2ccccc12 | n[0.501 µM] | n | n | 32µM | n | n
COC(=O)c1ccc(NC(=S)NC(=O)c2cc(-c3ccccc3)nc3ccccc23)cc1 | n[2.33 µM] | n | n | 11µM | n | n
COc1ccc(C(=O)NNC(=S)NC(=O)c2cc(-c3ccccc3)nc3ccccc23)cc1 | u | n | n | n | u | n
COc1ccc(Cl)cc1C(=O)NC(=S)Nc1cc(-c2nc3ccccc3[nH]2)ccc1C | u | u | n | 4µM | u | n
Cc1nc2nncn2c(Nc2ccccc2)c1C | n | x | n | x | x | x
COc1ccc(NC(=O)NNC(=O)c2ccc3ccccc3c2O)c(OC)c1 | n | x | n | x | x | n
Cc1ccc(S(=O)(=O)N2CCNC(=O)C2)c(C)c1 | 56µM | x | x | x | x | x
O=C(NC(c1ccccc1)c1ccccc1)c1ccc(=O)[nH]n1 | n | n | n | 4.5µM | n | n
O=C(Nc1ccc(F)cc1)c1ccc(=O)[nH]n1 | n[2.33 µM] | x | n | x | x | n
O=C(Nc1ccc([N+](=O)[O-])cc1)N1CCCCCC1 | n | x | n | x | x | n
CC(C)(C)c1ccc(NC(=O)N2CCCN(c3ccc([N+](=O)[O-])cn3)CC2)cc1 | u | u | n | 16µM | n | n
Cc1ccc(CN2CCC(CNC(=O)Nc3c(C)cccc3C)C2)cc1 (stereo not given) | n | x | n | x | x | x
Cc1cc(Cl)ccc1NC(=O)C1CCCN(c2nnc(C)c3c(C)n(-c4ccccc4)nc23)C1 (stereo not given) | u | x | n | x | x | x
Cc1cccc(C)c1OCC(=O)NCC1(N(C)C)CCCCC1 | n | n | n | x | x | x
COC(=O)C1=C(C)Nc2nnnn2C1c1ccccc1Cl (stereo not given) | n | n | n | 2.5µM | n | n
CCCCOC(=O)C1=C(C)Nc2nnnn2C1c1ccc(OC)c(OC)c1OC (stereo not given) | n[12.7 µM] | n | n | n | n | n
CCCCCOC(=O)C1=C(C)Nc2nnnn2C1c1ccccc1Cl (stereo not given) | n[12.7 µM] | u | n | 2µM | n | n
O=C(CSC1=Nc2ccccc2C2=NC(Cc3ccccc3)C(=O)N12)Nc1ccccc1C(F)(F)F (stereo not given) | n | n | n | x | x | x
COc1ccc(Oc2nc(-c3ccccn3)ncc2OC)cc1 | u | u | n | u | n | n
COc1cnc(-c2ccccn2)nc1Sc1ccccc1Cl | n | n | n | u | n | n
CCOC(=O)C(C)Sc1nc(-c2ccccn2)ncc1OC (stereo not given) | n | u | n | u | u | 35µM
CN(C)c1nc(-c2ccccn2)nnc1-c1ccccc1 | n | u | n | n | u | 79µM
COc1cnc(-c2ccccn2)nc1N(C)C | n | u | n | n | u | 16µM
COc1ccc(CNS(=O)(=O)CCNC(=O)c2ccc(OC)cc2)cc1 | n[0.501 µM] | x | x | x | x | x
